Assay: Selectivity index, ratio of CC50 for cytotoxicity against human HFF cells infected with HCMV AD-169 virus assessed as reduction in cell viability by cell titer-glo assay to EC50 for antiviral activity against HCMV AD-169 infected in HFF cells assessed as inhibition of virus-induced cytopathic effect measured after 14 days
Type: toxicity, cell-based
Conditions: read-out: Ratio CC50/EC50

SMILES: Nc1nc(O)c2ncn(COC(CO)CO)c2n1 [GANCICLOVIR]
- selectivity ratio at 336 h: > 175

Reference: ChEMBL document CHEMBL5120909, “Reshaping an Acyclic Nucleoside Phosphonate into a Selective Anti-hepatitis B Virus Compound” (J Med Chem, 2022)
